# According to patent US20200368361A1:
# Protein sequences, listed by entry. Tags and fused reporters are not part of them. Lines headed by an entry give the natural chain unless they say otherwise; changes in a name come on top.
# UniProt P21757: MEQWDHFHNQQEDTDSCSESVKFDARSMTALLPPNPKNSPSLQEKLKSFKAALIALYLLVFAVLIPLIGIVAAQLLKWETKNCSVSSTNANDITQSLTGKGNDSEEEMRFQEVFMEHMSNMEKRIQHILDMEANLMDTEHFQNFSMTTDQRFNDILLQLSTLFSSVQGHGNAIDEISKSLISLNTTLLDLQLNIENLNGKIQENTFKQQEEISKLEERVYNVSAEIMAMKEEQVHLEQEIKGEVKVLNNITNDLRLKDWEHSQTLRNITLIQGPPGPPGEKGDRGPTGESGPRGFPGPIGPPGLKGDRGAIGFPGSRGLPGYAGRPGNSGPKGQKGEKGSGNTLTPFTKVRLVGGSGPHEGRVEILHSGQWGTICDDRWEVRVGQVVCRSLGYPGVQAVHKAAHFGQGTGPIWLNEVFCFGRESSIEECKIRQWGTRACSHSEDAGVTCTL
# B1: H1H27751P-N297Q (antibody, human IgG1, V domains shown)
# VH: EVQLVESGGGLVQPGGSLRLSCAASGFTFSNYAMHWVRQAPGKGLEYVSAISSNGGSTYYADSVKGRITISRDNSKNTLYLQMGSLRAEDMAVYYCARGRPYYYYFGMDVWGQGTTVTVSS
# VL: DIVMTQTPVSSPVTLGQPASISCRSSQSLVHSDGNTYLSWFQQRPGQPPRLLIYKISNRFSGVPDRFSGSGAGTDFTLKISRVEAEDVGVYYCMQATQFPLNFGGGTKVEIKR
# Key:
# [1] = molecular target: human MSR1 endogenously expressed on PMA-differentiated THP-1 cells (human) (UniProt P21757); experiment: imaging of PMA-differentiated THP-1 cells, 10 ug/mL antibody, Alexa 488 secondary
# [2] = molecular target: endogenously expressed human MSR1 on PMA-treated THP-1 cells (human) (UniProt P21757); experiment: ECL cell binding, PMA-treated THP-1
binder,measurement,setting,value
B1,Total Binding at 4° C.,[1],5.83e+06 RFU
same,Total Binding at 37° C.,[1],8e+06 RFU
same,binding signal ratio to isotype control (11 nM),[2],54 fold
